{
  "source": "patent US10357480B2",
  "about": "“Biotin for treating peripheral demyelinating neuropathy” (MedDay Pharmaceuticals, priority 2015, dated 2019)",
  "origin": "cited, not measured here",
  "system": "patients affected by ALS",
  "conditions": "cited from earlier work",
  "data": [
    {"smiles": "Nc1nc2ccc(OC(F)(F)F)cc2s1", "note": "[riluzole]", "values": [
      {"measurement": "prolonged survival, average", "setting": "ALS patients (Mitsumoto et al., 2014)", "value": "2-3 months"},
      {"measurement": "liver damage, people taking the drug", "setting": "from Wikipedia", "value": "about 10%"}
    ]}
  ]
}
